Assay results taken from PubChem BioAssay (NCI).
Some results for these compounds are left out of this collection, so the calls shown say nothing about other tests.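 Growth conditions: 96-well plates. Treatment: test compound, 48 hours, 5 concentrations. Analysis: linear interpolation between bracketing concentrations; unreached endpoints set to highest concentration. GI50 marks 50% less growth. TGI: concentration producing complete growth inhibition.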

Tests used:
Experiment in all cases: NCI-60 cell line screen, 48 h
[1] = system: SN12C renal
[2] = system: MCF7 breast
[3] = system: SK-MEL-5 melanoma
[4] = system: RXF 393 renal
[5] = system: NCI-H226 lung
[6] = system: SK-MEL-28 melanoma
[7] = system: A549 NSCLC
[8] = system: UACC-257 melanoma
[9] = system: PC-3 prostate
[10] = system: LOX IMVI melanoma
[11] = system: SK-MEL-2 melanoma
[12] = system: HT29 colon
[13] = system: SF-295 CNS
[14] = system: M14 melanoma
[15] = system: NCI/ADR-RES ovarian
[16] = system: NCI-H460 lung
[17] = system: TK-10 renal
[18] = system: SF-539 CNS
[19] = system: OVCAR-4 ovarian
[20] = system: OVCAR-3 ovarian
[21] = system: EKVX NSCLC
[22] = system: HOP-92 NSCLC
[23] = system: SNB-75 CNS
[24] = system: DU-145 prostate
[25] = system: SR leukemia
[26] = system: ACHN renal
[27] = system: OVCAR-5 ovarian
[28] = system: 786-0 renal
[29] = system: MOLT-4 leukemia
[30] = system: OVCAR-8 ovarian
[31] = system: BT-549 breast
[32] = system: KM12 colon
[33] = system: RPMI-8226 leukemia
[34] = system: A498 renal
[35] = system: U251 CNS
[36] = system: SF-268 CNS
[37] = system: HCC-2998 colon
[38] = system: HCT-116 colon
[39] = system: UO-31 renal
[40] = system: T-47D breast
[41] = system: COLO 205 colon
[42] = system: MALME-3M melanoma
[43] = system: CAKI-1 renal
[44] = system: MDA-N
[45] = system: SK-OV-3 ovarian
[46] = system: CCRF-CEM leukemia
[47] = system: SNB-19 CNS
[48] = system: IGROV1 ovarian
[49] = system: UACC-62 melanoma
[50] = system: HCT-15 colon
[51] = system: MDA-MB-435
[52] = system: HS 578T breast
[53] = system: K-562 leukemia
[54] = system: MDA-MB-231 breast
[55] = system: SW-620 colon
[56] = system: HOP-62 NSCLC
[57] = system: HL-60(TB) leukemia
[58] = system: NCI-H23 lung
[59] = system: NCI-H322M lung
[60] = system: NCI-H522 lung

C=C(C)C#CC(O)(C(=O)OC1CN2CCC1CC2)c1ccccc1 (stereo unspecified)
GI50 [1]: > 100 µM
TGI [1]: > 100 µM
GI50 [2]: > 100 µM
TGI [2]: > 100 µM
GI50 [3]: > 100 µM
TGI [3]: > 100 µM
GI50 [4]: > 100 µM
TGI [4]: > 100 µM
GI50 [5]: > 100 µM
TGI [5]: > 100 µM
GI50 [6]: > 100 µM
TGI [6]: > 100 µM
GI50 [7]: > 100 µM
TGI [7]: > 100 µM
GI50 [8]: > 100 µM
TGI [8]: > 100 µM
GI50 [9]: > 100 µM
TGI [9]: > 100 µM
GI50 [10]: > 100 µM
TGI [10]: > 100 µM
GI50 [11]: > 100 µM
TGI [11]: > 100 µM
GI50 [12]: > 100 µM
TGI [12]: > 100 µM
GI50 [13]: > 100 µM
TGI [13]: > 100 µM
GI50 [14]: > 100 µM
TGI [14]: > 100 µM
GI50 [15]: > 100 µM
TGI [15]: > 100 µM
GI50 [16]: > 100 µM
TGI [16]: > 100 µM
GI50 [17]: > 100 µM
TGI [17]: > 100 µM
GI50 [18]: > 100 µM
TGI [18]: > 100 µM
GI50 [19]: > 100 µM
TGI [19]: > 100 µM
GI50 [20]: > 100 µM
TGI [20]: > 100 µM
GI50 [21]: > 100 µM
TGI [21]: > 100 µM
GI50 [22]: > 100 µM
TGI [22]: > 100 µM
GI50 [23]: > 100 µM
TGI [23]: > 100 µM
GI50 [24]: > 100 µM
TGI [24]: > 100 µM
GI50 [25]: > 100 µM
TGI [25]: > 100 µM
GI50 [26]: > 100 µM
TGI [26]: > 100 µM
GI50 [27]: > 100 µM
TGI [27]: > 100 µM
GI50 [28]: > 100 µM
TGI [28]: > 100 µM
GI50 [29]: > 100 µM
TGI [29]: > 100 µM
GI50 [30]: > 100 µM
TGI [30]: > 100 µM
GI50 [31]: > 100 µM
TGI [31]: > 100 µM
GI50 [32]: > 100 µM
TGI [32]: > 100 µM
GI50 [33]: > 100 µM
TGI [33]: > 100 µM
GI50 [34]: > 100 µM
TGI [34]: > 100 µM
GI50 [35]: > 100 µM
TGI [35]: > 100 µM
GI50 [36]: > 100 µM
TGI [36]: > 100 µM
GI50 [37]: > 100 µM
TGI [37]: > 100 µM
GI50 [38]: > 100 µM
TGI [38]: > 100 µM
GI50 [39]: > 100 µM
TGI [39]: > 100 µM
GI50 [40]: > 100 µM
TGI [40]: > 100 µM
GI50 [41]: > 100 µM
TGI [41]: > 100 µM
GI50 [42]: > 100 µM
TGI [42]: > 100 µM
GI50 [43]: > 100 µM
TGI [43]: > 100 µM
GI50 [44]: > 100 µM
TGI [44]: > 100 µM
GI50 [45]: > 100 µM
TGI [45]: > 100 µM
GI50 [46]: > 100 µM
TGI [46]: > 100 µM
GI50 [47]: > 100 µM
TGI [47]: > 100 µM
GI50 [48]: > 100 µM
TGI [48]: > 100 µM
GI50 [49]: > 100 µM
TGI [49]: > 100 µM
GI50 [50]: > 100 µM
TGI [50]: > 100 µM
GI50 [51]: > 100 µM
TGI [51]: > 100 µM
GI50 [52]: > 100 µM
TGI [52]: > 100 µM
GI50 [53]: 36.5 µM
TGI [53]: > 100 µM
GI50 [54]: > 100 µM
TGI [54]: > 100 µM
GI50 [55]: > 100 µM
TGI [55]: > 100 µM
GI50 [56]: > 100 µM
TGI [56]: > 100 µM
GI50 [57]: > 100 µM
TGI [57]: > 100 µM
GI50 [58]: > 100 µM
TGI [58]: > 100 µM

CN1CCC(OC(=O)C(O)(c2ccccc2)c2cccc3c2OC(C)(C)C3)CC1 (stereo unspecified)
TGI [1]: > 100 µM
TGI [2]: > 100 µM
TGI [3]: 31.6 µM
TGI [4]: > 100 µM
TGI [5]: > 100 µM
TGI [6]: 37 µM
TGI [7]: > 100 µM
TGI [8]: 37 µM
TGI [9]: > 100 µM
TGI [10]: 70.5 µM
TGI [11]: 86.7 µM
TGI [12]: 65.8 µM
TGI [13]: > 100 µM
TGI [14]: 33.5 µM
TGI [15]: > 100 µM
TGI [16]: > 100 µM
TGI [17]: > 100 µM
TGI [18]: > 100 µM
TGI [59]: > 100 µM
TGI [19]: > 100 µM
TGI [60]: > 100 µM
TGI [20]: > 100 µM
TGI [21]: > 100 µM
TGI [22]: 89.2 µM
TGI [23]: 81.3 µM
TGI [24]: > 100 µM
TGI [25]: 53.7 µM
TGI [26]: > 100 µM
TGI [27]: > 100 µM
TGI [28]: > 100 µM
TGI [29]: 91.2 µM
TGI [30]: > 100 µM
TGI [31]: > 100 µM
TGI [32]: > 100 µM
TGI [33]: 84 µM
TGI [34]: > 100 µM
TGI [35]: > 100 µM
TGI [36]: > 100 µM
TGI [37]: 69.6 µM
TGI [38]: > 100 µM
TGI [39]: > 100 µM
TGI [40]: 99.4 µM
TGI [41]: 52.8 µM
TGI [42]: 40.4 µM
TGI [43]: > 100 µM
TGI [44]: > 100 µM
TGI [45]: > 100 µM
TGI [46]: > 100 µM
TGI [47]: > 100 µM
TGI [48]: 46.4 µM
TGI [49]: > 100 µM
TGI [50]: > 100 µM
TGI [51]: > 100 µM
TGI [52]: 90.3 µM
TGI [53]: 90.1 µM
TGI [54]: > 100 µM
TGI [55]: > 100 µM
TGI [56]: > 100 µM
TGI [57]: 87.3 µM
TGI [58]: > 100 µM
